scFv variants of Ab-14 (light chain) against a SARS-CoV-2 spike peptide

Target peptide (SARS-CoV-2 spike, HR2 region): PDVDLGDISGINAS

Ab-14 is the parent antibody, in scFv form: VH, then the linker GGGGSGGGGSGGGGS, then VL. The heavy chain is unchanged in all variants.
VH: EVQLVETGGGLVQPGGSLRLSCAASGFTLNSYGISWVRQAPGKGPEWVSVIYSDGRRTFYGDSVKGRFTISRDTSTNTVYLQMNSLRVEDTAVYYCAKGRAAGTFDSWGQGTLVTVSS
VL: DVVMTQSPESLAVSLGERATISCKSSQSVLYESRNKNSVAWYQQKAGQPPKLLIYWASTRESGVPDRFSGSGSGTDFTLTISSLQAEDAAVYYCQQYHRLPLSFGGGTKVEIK

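The starting antibody came from a phage panning campaign against this peptide. These sequences belong to a second round, designed from the earlier measurements on random variants of the parent. Their group label is 14L_Ctrl (Ctrl: baseline library sampled from a position-specific scoring matrix, with some repeated check sequences). The scFvs were displayed on barcoded MATa yeast, the peptide on MATalpha yeast. Mating (16 h, 30 °C) was followed by selection of diploids and sequencing of their barcodes. Scores were corrected for input abundance and mapped to Kd with protein pairs of known affinity run in the same pool. The assay was run in six technical replicates.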

The whole VL of each variant is written out.
Numbers give log10(Kd / nM), so 0 is 1 nM and 3 is 1 µM. Smaller is tighter.
Averages over replicates are reported, and they cover detected replicates only.
A pair that was not seen in that replicate is written "n.d."; this usually means weak binding, but a binder can also be missed.
A sequence measured in both rounds can read differently, since the two assays cover different ranges.
Empty control strains, which show no peptide, gave a signal in 4% of pairings with all light chain designs; the median was 2.64 and 95% of these signals were weaker than 1.59. No background was subtracted. For each scFv, signals with the empty controls are counted beside the result, with their mean in brackets.
The authors averaged sequences with at least three values out of six and counted those with two or fewer as poor binders.

| # | VL | log10 Kd (nM) by replicate | mean log10 Kd (nM) | control signals |
|---|---|---|---|---|
| 1 | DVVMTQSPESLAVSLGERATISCKSSQSVLYEDREKNSVAWYQQKAGQPPKLLIYWASERESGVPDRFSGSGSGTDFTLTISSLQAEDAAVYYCQQYHRPPLSFGGGTKVEIK | n.d. n.d. n.d. n.d. n.d. n.d. | n.d. | 1 of 18 (1.99) |
| 2 | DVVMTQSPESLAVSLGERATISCKASQSVLQPSRNKNSVAWYQQKAGQPPKLLIYQASTRESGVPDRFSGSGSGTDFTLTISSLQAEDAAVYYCQQYHRLPLSFGGGTKVEIK | 0.23 0.28 0.54 0.22 0.13 0.39 | 0.30 | 0 of 18 |
| 3 | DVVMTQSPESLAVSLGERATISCKSSQYVLYGSRNKNSVAWYQQKAGQPPKLLIYWASTRESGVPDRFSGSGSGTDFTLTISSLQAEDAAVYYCQQYHRLPLSFGGGTKVEIK | n.d. n.d. 1.73 2.28 3.12 n.d. | 2.38 | 0 of 18 |
| 4 | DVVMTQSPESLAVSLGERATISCKISQGVLYENDNKNSVAWYQQKAGQPPKLLIYWASTRESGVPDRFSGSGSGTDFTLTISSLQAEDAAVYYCQQYHRLPLSFGGGTKVEIK | 1.52 0.46 0.38 0.26 0.15 0.51 | 0.55 | 0 of 18 |
| 5 | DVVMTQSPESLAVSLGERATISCKSSQSVCYESRNSNSVAWYQQKAGQPPKLLIYWASTRESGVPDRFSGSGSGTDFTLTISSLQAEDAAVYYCQQYHRLPLSFGGGTKVEIK | n.d. 2.26 1.94 1.33 n.d. 2.68 | 2.05 | 0 of 18 |
| 6 | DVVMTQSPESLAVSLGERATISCMSSQSDLYESRNKNSVAWYQQKAGQPPKLLIYWASTRESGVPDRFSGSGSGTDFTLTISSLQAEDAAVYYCQQYHRLPLSFGGGTKVEIK | n.d. n.d. n.d. n.d. n.d. n.d. | n.d. | 0 of 18 |
| 7 | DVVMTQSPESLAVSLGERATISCKSSQQWLYESLNKNIVAWYQQKAGQPPKLLIYWASTRESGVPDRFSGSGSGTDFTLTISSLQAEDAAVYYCQTYHRLSLSFGGGTKVEIK | n.d. n.d. n.d. n.d. n.d. n.d. | n.d. | 0 of 18 |
| 8 | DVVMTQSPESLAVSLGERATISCKQTQSVLYESRNKNSVAWYQQKAGQPPKLLIYWASTRESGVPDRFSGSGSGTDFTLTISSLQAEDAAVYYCQQYHRLPLSFGGGTKVEIK | n.d. 1.74 n.d. n.d. 2.26 1.08 | 1.69 | 0 of 18 |
| 9 | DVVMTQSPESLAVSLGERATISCKSSQSWLYESRNKNSVAWYQQKAGQPPKLLIYEASTRESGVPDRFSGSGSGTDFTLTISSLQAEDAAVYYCQQYHRLPLHFGGGTKVEIK | 0.40 1.19 0.17 0.56 0.73 0.64 | 0.61 | 0 of 18 |
| 10 | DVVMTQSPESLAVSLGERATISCSSSQSVLVESRNKNSVAWYQQKAGQPPKLLIYGASLRESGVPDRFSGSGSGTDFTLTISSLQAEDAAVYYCQQYHRLPLSFGGGTKVEIK | n.d. n.d. n.d. n.d. n.d. n.d. | n.d. | 0 of 18 |
| 11 | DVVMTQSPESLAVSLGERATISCKMSQSWLYESLNKNSVAWYQQKAGQPPKLLIYAASTRESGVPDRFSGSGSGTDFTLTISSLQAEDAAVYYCQQYSRLPLSFGGGTKVEIK | -0.31 -0.10 -0.13 -0.38 -0.41 -0.06 | -0.23 | 0 of 18 |
| 12 | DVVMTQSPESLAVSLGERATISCKSSQSVLYESTNQNSVAWYQQKAGQPPKLLIYWASTRESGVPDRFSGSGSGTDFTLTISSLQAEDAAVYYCQFYHRLPLSFGGGTKVEIK | n.d. n.d. 2.16 2.37 2.82 3.82 | 2.79 | 0 of 18 |
| 13 | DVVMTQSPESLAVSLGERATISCQMSQPVLYESRLKNSVAWYQQKAGQPPKLLIYWASTRERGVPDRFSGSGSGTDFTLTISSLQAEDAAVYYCQQTHRLPLSFGGGTKVEIK | 4.88 n.d. n.d. n.d. n.d. n.d. | 4.88 | 2 of 18 (2.65) |
| 14 | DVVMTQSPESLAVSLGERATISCKVSQSVLYESRNKNSVAWYQQKAGQPPKLLIYWASTRESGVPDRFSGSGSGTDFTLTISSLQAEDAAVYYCQQYIRLPLSFGGGTKVEIK | 0.92 0.56 0.22 0.46 0.37 0.69 | 0.54 | 1 of 18 (2.52) |
| 15 | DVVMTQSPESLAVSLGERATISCKSSQSVLYESTNKNSVAWYQQKAGQPPKLLIYWASTRESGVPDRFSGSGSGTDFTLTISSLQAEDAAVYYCKQYHRLPLSFGGGTKVEIK | n.d. n.d. n.d. n.d. n.d. n.d. | n.d. | 1 of 18 (0.42) |
| 16 | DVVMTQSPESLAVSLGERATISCKSSQSTLYESRNLNSVAWYQQKAGQPPKLLIYDASTRESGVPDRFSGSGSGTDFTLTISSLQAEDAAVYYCQQYHRLPLSFGGGTKVEIK | 0.26 0.11 0.28 0.03 0.10 0.25 | 0.17 | 0 of 18 |

A selection of 2 entries from above:

VL,log10 Kd (nM) by replicate,mean log10 Kd (nM),control signals
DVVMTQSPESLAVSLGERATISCKSSQSVLYESTNQNSVAWYQQKAGQPPKLLIYWASTRESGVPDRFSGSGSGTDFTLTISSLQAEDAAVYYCQFYHRLPLSFGGGTKVEIK,n.d. n.d. 2.16 2.37 2.82 3.82,2.79,0 of 18
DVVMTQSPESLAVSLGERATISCKSSQQWLYESLNKNIVAWYQQKAGQPPKLLIYWASTRESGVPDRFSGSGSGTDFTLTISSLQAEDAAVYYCQTYHRLSLSFGGGTKVEIK,n.d. n.d. n.d. n.d. n.d. n.d.,n.d.,0 of 18

Data: MIT Lincoln Laboratory AlphaSeq set, Li et al. 2023, doi:10.1038/s41467-023-39022-2, as distributed in FLAb.